Where two headings read alike, the source gives them in different places.

Here are results for one molecule from article PMC3880646 (Journal of medicinal chemistry, 2013).

For assay [1], the system named is RS4;11 acute lymphoblastic leukemia xenograft. It is filed as in vivo.
The subject of assay [2] is SJSA-1 osteosarcoma tumor xenograft. It is filed as in vivo.

Take `CC(C)(C)C[C@@H]1N[C@@H](C(=O)N[C@H]2C[C@@](C)(O)C2)[C@H](c2cccc(Cl)c2F)[C@]12C(=O)Nc1cc(Cl)ccc12` [Compound 9]: the antitumor activity result was “rapid and complete tumor regression” in assay [1] (100 mg/kg oral gavage daily for 3 weeks); “rapid and complete tumor regression” in assay [1] (200 mg/kg oral gavage daily for 3 weeks); “no significant activity” in assay [2] (10 mg/kg oral gavage daily for 2 weeks); “effectively inhibited tumor growth” in assay [2] (30 mg/kg oral gavage daily for 2 weeks); “rapid and complete tumor regression” in assay [2] (100 mg/kg oral gavage daily for 2 weeks).
